Data: article PMC6718736, “Validation of in vitro methods for human cytochrome P450 enzyme induction: Outcome of a multi-laboratory study” (Toxicology in Vitro, 2019)
“Also recorded” adds a separate entry of the source.

Key:
[1] = test system: CYP1A2; test: CYP1A2 enzyme induction assay in cryopreserved HepaRG cells (phenacetin probe, LC/MS); type: in vitro ADME, human
[2] = test system: CYP2B6; test: CYP2B6 enzyme induction assay in cryopreserved HepaRG cells (bupropion probe, LC/MS); type: in vitro ADME, human; conditions: for Prediction in vivo inducer: Cmax/F2 >0.5 criterion
[3] = test system: CYP3A4; test: CYP3A4 enzyme induction assay in cryopreserved HepaRG cells (midazolam probe, LC/MS); type: in vitro ADME, human
[4] = test system: CYP1A2; test: CYP1A2 enzyme induction assay in cryopreserved primary human hepatocytes (PHH); type: in vitro ADME; conditions: for Prediction in vivo inducer: Cmax/F2 >0.5 criterion
[5] = test system: CYP2B6; test: CYP2B6 enzyme induction assay in cryopreserved primary human hepatocytes (PHH); type: in vitro ADME
[6] = test system: CYP3A4; test: CYP3A4 enzyme induction assay in cryopreserved primary human hepatocytes (PHH)
[7] = positive in one batch in each of the three laboratories

Prediction in vivo inducer ([1]; Cmax/F2 >0.5 criterion): Yes | Induction in vitro [1, 7]: Yes | Prediction in vivo inducer [2]: Yes | Prediction in vivo inducer ([2]; listed as sulfinpyrazone): predicted as positive inducers | Induction in vitro [2, 7]: Yes | Induction in vitro [3]: Yes | Prediction in vivo inducer [3]: Yes | Prediction in vivo inducer [4]: No | Induction in vitro ([4]; positive in one donor in each of the three laboratories): No | Induction in vitro [5]: Yes | Prediction in vivo inducer [5]: Yes | Induction in vitro [6]: Yes | Prediction in vivo inducer [6]: Yes
SMILES: O=C1C(CC[S+]([O-])c2ccccc2)C(=O)N(c2ccccc2)N1c1ccccc1 (centres unmarked) [Sulfinpyrazone]
Prediction in vivo inducer ([4]; listed as sulfinpyrazone): non-inducer; also recorded: missed the in vivo prediction
